From US20250059218A1, “ENPP1 Inhibitors and Methods of Modulating Immune Response” (The Board of Trustees of the Leland Stanford Junior …, priority 2019, published 2025) come the findings set out here.

Amino acid sequences for entries named in this document (tags omitted). Residues count along the entry.
UniProt P06802, 85-906 limits assumed: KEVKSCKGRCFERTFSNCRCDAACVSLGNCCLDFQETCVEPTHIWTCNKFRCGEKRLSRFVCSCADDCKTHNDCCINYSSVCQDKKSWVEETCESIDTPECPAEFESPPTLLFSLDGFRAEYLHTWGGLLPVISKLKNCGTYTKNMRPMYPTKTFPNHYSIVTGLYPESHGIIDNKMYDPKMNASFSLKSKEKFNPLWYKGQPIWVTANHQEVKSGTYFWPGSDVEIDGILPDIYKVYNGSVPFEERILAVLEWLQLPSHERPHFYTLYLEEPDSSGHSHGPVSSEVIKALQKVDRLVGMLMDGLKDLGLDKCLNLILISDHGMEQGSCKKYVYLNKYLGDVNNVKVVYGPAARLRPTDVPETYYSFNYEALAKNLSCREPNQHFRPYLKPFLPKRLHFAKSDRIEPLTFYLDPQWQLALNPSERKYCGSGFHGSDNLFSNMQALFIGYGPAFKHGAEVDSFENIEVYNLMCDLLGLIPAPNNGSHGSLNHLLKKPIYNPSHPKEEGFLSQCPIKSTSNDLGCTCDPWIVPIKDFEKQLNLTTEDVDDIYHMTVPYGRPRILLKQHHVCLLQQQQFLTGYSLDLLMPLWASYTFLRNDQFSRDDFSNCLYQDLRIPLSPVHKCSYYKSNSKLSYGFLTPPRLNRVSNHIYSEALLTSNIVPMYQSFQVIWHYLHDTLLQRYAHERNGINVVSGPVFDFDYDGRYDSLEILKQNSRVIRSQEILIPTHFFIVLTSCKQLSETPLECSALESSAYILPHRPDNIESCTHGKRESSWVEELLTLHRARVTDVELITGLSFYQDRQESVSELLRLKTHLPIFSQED
UniProt P22413, whole entry: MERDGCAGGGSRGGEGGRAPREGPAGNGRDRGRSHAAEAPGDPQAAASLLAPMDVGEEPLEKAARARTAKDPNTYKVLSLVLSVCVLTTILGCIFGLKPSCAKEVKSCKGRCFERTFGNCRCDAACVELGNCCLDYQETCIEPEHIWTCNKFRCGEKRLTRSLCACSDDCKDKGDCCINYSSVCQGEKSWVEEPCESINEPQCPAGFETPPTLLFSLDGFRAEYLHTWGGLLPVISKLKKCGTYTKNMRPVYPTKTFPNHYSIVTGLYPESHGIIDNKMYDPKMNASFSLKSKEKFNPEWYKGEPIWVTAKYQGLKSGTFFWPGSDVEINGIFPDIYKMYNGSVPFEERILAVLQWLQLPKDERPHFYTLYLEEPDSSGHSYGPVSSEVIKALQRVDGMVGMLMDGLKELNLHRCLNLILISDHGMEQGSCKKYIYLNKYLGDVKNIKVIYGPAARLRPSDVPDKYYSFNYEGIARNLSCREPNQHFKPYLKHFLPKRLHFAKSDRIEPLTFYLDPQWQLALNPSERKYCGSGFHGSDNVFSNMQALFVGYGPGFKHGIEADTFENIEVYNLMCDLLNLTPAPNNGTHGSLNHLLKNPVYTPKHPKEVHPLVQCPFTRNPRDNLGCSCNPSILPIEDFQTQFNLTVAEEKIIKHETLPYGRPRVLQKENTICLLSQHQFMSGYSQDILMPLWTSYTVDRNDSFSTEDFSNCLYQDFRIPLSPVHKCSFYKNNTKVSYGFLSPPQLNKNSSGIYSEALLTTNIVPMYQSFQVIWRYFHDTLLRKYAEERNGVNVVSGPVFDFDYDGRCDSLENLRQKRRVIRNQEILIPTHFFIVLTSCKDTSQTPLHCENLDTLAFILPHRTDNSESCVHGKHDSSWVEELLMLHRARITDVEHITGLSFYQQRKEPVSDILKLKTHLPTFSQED

For one assay, the target named is purified mouse ENPP1 (Mus musculus (Mouse), UniProt P06802). As to the kind of experiment: 32P-cGAMP degradation TLC assay. It counts as biochemical. The note with it: read-out: Ki,app; 32P-cGAMP as substrate, pH 7.5; unit given as M.
The target of assay [1] is human ENPP1 transiently expressed in 293T cGAS ENPP1−/− cells (Homo sapiens (Human), UniProt P22413). The assay can be described thus: Extracellular cGAMP in ENPP1-overexpressing 293T cGAS cells (LC-MS/MS). It counts as cell-based.
Assay [2] concerns cGAMP export in 293T cGAS ENPP1−/− cells. The assay can be described thus: cGAMP export assay in 293T cGAS ENPP1−/− cells. Format: cell-based, human.

With `COc1cc2ncnc(N3CCC(CCNS(N)(=O)=O)CC3)c2cc1OC`, the Ki at purified mouse ENPP1 was 6.4 µM. Also, the “extracellular cGAMP degradation” value in assay [1] was “can inhibit extracellular cGAMP degradation”. The “intracellular cGAMP” value in assay [2] (293T cGAS ENPP1−/− cells) is given as “elevated intracellular cGAMP”. The cGAMP export result in assay [2] (ENPP1 knockout cells) is listed as “partially blocked cGAMP export”.
